The source of these data is ChEMBL document CHEMBL1153544, “Synthesis of 1,1-[1-naphthyloxy-2-thiophenyl]-2-methylaminomethylcyclopropanes and their evaluation as inhibitors of serotonin, norepinephrine, and dopamine transporters” (J Med Chem, 2009).

Chains of the proteins cited; added tags and fusions are not shown.
UniProt Q01959, whole entry: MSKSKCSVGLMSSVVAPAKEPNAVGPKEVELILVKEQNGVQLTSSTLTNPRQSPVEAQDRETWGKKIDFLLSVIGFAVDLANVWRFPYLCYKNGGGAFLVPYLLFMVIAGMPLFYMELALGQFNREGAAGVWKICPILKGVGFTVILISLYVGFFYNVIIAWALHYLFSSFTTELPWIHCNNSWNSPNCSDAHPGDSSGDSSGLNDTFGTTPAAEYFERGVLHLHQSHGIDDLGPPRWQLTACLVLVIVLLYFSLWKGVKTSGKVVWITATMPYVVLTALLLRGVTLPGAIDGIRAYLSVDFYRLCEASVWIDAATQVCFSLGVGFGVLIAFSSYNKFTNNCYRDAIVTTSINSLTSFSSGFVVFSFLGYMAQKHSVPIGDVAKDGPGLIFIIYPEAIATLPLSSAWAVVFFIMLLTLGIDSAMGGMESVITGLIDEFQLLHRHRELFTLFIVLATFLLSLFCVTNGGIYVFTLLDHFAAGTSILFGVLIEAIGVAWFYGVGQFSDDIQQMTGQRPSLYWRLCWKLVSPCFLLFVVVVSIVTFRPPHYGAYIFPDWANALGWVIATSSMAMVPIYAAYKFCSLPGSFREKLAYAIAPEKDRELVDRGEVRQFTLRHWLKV

This assay has as its target Sodium-dependent dopamine transporter (Homo sapiens, UniProt Q01959).
The Ki is the equilibrium dissociation constant of an inhibitor or competing ligand from its target. A high value points to lower affinity. With `CNC[C@@H]1C[C@@]1(Oc1cccc2ccccc12)c1cccs1`, the inhibition constant Ki was determined as 223 nM.

As to `CNC[C@H]1C[C@]1(Oc1cccc2ccccc12)c1cccs1`, the Ki is 1910 nM. Compared with the last compound, the Ki is about 8.6-fold higher.

Consider `CNC[C@@H]1C[C@@]1(Oc1cccc2ccccc12)c1cccs1` (racemic), for which the affinity, expressed as Ki, was 283 nM.

The compound `CNC[C@H]1C[C@@]1(Oc1cccc2ccccc12)c1cccs1` (racemic) returned a Ki of 586 nM.
